The test relates to GFP+ MGH134-1 cells. Kind of test: Long-term co-culture assay, primary human macrophages + GFP+ MGH134-1 cells. Format: cell-based. The following applies: secondary EGFR mutation. Here is the method: Long-term co-culture of primary human macrophages was performed using GFP+ target cells. Cells were cultured in IMDM supplemented with 10% ultra-low IgG fetal bovine serum, 100 units/mL penicillin, 100 ug/mL streptomycin, and 292 ug/mL L-glutamine and 20 ng/mL human M-CSF. Purified anti-CD47 antibody clone B6H12 was added at a working concentration of 10 ug/mL. Targeted therapies were added at a final working concentration of 1.0 uM except as otherwise indicated. Cells were then co-cultured for 7-14 days with whole-well imaging of phase contrast and GFP channels performed every 4 hours using an Incucyte S3 system. Automated imaging analysis was performed using Incucyte Analysis Software. Images taken on day 6.5 was used as a standard reference time point for data comparison and statistical analysis. For dose-response experiments, sigmoidal dose-response curves were generated using Prism version 9.2.0 (GraphPad) to determine IC50 parameters.
Long-term co-culture assays were performed by measuring GFP+ area. Data was analyzed by comparing mean GFP+ area between relevant conditions using one-way ANOVA with Holm-Sidak multiple comparison test. Experiments were performed in two independent trials using a minimum of 6-8 donors except as otherwise indicated. IC50 values were calculated by fitting data to sigmoidal dose-response curve using Prism version 9.2.0 (Graphpad).

As for `COc1cc2ncnc(Nc3ccc(F)c(Cl)c3)c2cc1OCCCN1CCOCC1` [gefitinib], the “sensitivity of MGH134 cells to EGFR TKI” value is listed as “resistant”.

The values are drawn from patent US20250180543A1, “COMPOSITIONS AND METHODS OF A HIGH-THROUGHPUT SCREEN TO IDENTIFY COMPOUNDS THAT ALTER MACROPHAGE-MEDIATED CYTOTOXICITY OF TARGET CELLS” (Whitehead Institute for Biomedical Research, priority 2022, published 2025).
